Values of other authors in US20080261895A1, “Isolated hydroxy and n-oxide metabolites and derivatives of O-desmethylvenlafaxine and methods of treatment” (Wyeth, priority 2006, published 2008).

Chains of the proteins cited; added tags and fusions are not shown.
UniProt P23975, whole entry: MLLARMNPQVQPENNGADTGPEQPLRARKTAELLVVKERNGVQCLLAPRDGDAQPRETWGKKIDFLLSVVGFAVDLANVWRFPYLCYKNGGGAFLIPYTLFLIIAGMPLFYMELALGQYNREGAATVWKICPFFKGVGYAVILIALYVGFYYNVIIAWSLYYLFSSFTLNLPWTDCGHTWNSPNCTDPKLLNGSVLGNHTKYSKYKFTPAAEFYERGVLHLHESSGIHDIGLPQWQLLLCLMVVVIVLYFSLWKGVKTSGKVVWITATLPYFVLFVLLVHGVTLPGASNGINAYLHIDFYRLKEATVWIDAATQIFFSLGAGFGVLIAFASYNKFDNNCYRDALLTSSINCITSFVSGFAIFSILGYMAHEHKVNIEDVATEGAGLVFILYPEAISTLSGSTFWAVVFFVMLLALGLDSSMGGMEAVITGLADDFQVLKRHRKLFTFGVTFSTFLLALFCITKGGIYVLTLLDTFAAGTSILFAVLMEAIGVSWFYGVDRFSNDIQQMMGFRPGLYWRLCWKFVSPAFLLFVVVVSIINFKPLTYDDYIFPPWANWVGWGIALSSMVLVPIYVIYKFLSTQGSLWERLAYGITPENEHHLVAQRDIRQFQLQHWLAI
UniProt Q01959, whole entry: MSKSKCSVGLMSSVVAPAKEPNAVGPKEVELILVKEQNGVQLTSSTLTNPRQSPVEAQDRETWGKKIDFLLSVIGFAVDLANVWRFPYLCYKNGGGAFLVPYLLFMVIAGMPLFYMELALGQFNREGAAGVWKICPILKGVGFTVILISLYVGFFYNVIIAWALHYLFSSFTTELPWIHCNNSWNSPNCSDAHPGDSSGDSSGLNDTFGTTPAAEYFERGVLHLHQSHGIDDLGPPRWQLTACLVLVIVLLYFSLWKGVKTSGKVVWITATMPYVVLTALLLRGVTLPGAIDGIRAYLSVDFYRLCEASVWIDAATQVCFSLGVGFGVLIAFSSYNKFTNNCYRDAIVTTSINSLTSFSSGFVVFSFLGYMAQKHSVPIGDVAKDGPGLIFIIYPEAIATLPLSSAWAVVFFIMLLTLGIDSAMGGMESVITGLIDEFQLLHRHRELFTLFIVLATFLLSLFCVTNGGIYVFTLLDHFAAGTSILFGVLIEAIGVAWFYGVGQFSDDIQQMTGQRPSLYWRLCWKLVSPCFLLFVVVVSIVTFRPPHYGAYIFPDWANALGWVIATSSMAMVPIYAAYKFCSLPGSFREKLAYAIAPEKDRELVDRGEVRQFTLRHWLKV
UniProt P31645, whole entry: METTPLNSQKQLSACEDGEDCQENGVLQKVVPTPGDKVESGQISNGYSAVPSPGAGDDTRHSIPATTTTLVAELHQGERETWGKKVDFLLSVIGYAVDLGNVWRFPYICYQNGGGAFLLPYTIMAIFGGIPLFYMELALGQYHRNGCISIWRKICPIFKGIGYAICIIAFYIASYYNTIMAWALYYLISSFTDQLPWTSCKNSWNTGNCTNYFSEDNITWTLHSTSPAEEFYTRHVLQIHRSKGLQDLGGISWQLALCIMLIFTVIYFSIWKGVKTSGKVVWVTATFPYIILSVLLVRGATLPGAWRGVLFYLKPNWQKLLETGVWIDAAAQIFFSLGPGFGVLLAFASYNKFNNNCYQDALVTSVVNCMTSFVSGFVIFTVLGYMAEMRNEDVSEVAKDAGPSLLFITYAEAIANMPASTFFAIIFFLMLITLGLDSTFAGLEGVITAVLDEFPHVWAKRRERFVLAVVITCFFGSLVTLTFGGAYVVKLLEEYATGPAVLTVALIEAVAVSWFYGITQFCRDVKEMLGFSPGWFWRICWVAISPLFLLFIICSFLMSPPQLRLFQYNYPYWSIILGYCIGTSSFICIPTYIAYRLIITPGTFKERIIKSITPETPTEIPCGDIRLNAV

What was measured:
[1] = target: Norepinephrine reuptake (Homo sapiens, UniProt P23975); settings: read-out: Inhibition of amine reuptake (IC50; uM): Norepinephrine; in vitro; cited from earlier work
[2] = target: Dopamine reuptake (Homo sapiens, UniProt Q01959); settings: in vitro; read-out: Inhibition of amine reuptake (IC50; uM): Dopamine; cited from earlier work
[3] = target: Serotonin reuptake (Homo sapiens, UniProt P31645); settings: read-out: Inhibition of amine reuptake (IC50; uM): Serotonin; in vitro; cited from earlier work

SMILES: CN(C)CC(c1ccc(O)cc1)C1(O)CCCCC1 (stereo not drawn) [O-DESMETHYLVENLAFAXINE, 1-[2-(dimethylamino)-1-(4-phenol)ethyl]-cyclohexanol]
- IC50 [1]: 1.16 µM
- IC50 [2]: 13.4 µM
- IC50 [3]: 0.18 µM
